This passage reports IC50 results from ChEMBL document CHEMBL1201862, “PubChem BioAssay data set” (2004).

The chains behind the UniProt entries cited, without tags or fusion partners. Where a name states a change or a piece, a line headed by the entry shows the natural chain unless it says otherwise.
UniProt Q932Y6, whole entry: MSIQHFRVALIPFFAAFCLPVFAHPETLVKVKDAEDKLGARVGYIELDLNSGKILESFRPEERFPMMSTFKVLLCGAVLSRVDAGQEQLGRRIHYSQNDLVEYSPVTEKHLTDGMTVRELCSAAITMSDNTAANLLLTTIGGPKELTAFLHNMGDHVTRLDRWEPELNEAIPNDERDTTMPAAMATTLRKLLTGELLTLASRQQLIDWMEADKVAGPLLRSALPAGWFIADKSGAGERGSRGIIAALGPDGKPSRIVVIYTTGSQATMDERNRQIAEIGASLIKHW
UniProt P04406: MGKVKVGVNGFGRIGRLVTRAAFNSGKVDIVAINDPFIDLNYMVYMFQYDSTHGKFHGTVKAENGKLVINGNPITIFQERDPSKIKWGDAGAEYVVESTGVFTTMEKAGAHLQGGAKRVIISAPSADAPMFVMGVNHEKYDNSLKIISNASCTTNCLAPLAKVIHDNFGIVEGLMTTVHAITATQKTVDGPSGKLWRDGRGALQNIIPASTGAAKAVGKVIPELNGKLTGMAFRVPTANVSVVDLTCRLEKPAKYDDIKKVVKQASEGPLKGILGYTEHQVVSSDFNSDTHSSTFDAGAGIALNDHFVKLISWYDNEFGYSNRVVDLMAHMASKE

Activity calls are given as the source filed them. Bounds are passed on as bounds.

For assay [1], the target named is Beta Lactamase (Pseudomonas aeruginosa, UniProt Q932Y6). In words: beta-lactamase reporter inhibitor potency, dose response, artefact control for TLR9-MyD88 binding inhibitor project, BLA reporter cells, FRET fluorescence (AID 588341).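 Note: cell based assay in CHO-K1 cells stably expressing beta-lactamase.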 Format: cell-based.
Assay [2] deals with Glyceraldehyde-3-phosphate dehydrogenase (Homo sapiens, UniProt P04406).
Assay [3] in a line: cells. The class given is functional.

Regarding `CCCCNc1ccc2c3c(cccc13)C(=O)N(CCCC)C2=O`, in assay [1], the IC50 (as a rule, the midpoint of a concentration-inhibition curve) was active: 3.07 µM. For the molecule `COc1ccc(Br)cc1S(=O)(=O)Nc1cccnc1`, the concentration for half-maximal inhibition (IC50) in assay [2] was > 100 µM (not active). As to `Cc1[nH]n(-c2ccccc2)c(=O)c1/C=N/c1ccc(S(=O)(=O)Nc2nccs2)cc1`, the IC50 in assay [3] was active: 11.3 µM.
